Assay results taken from paper PMC4660058.

How the values were obtained:
[1] = target: actin filament free barbed end (B) (rabbit) (UniProt P68135); assay: microfluidics-assisted single-filament fluorescence microscopy (kinetics of elongation changes); set-up #1: filaments from surface-anchored spectrin–actin seeds, free barbed ends exposed to flows of CP or formin with profilin-actin (1 μM actin, 4 μM profilin); off-rates in PA alone; F-buffer pH 7.8, 50 mM KCl, room temperature; KD from the rate constants
[2] = target: formin mDia1-bound actin filament barbed end (BF), set-up #1 (rabbit | human) (UniProt P68135); assay: microfluidics-assisted single-filament fluorescence microscopy (kinetics of elongation changes); set-up #1: formin-bound barbed ends (BF) exposed to CP + PA (BF+C→BFC), then PA alone (constants 'from BFC'); unlabelled formin; F-buffer pH 7.8, 50 mM KCl, room temperature
[3] = target: actin filament barbed end bound to surface-anchored biotin-SNAP-mDia1 (BF), set-up #2 (rabbit | human) (UniProt P68135); assay: microfluidics-assisted single-filament fluorescence microscopy (kinetics of elongation changes); set-up #2: biotin-SNAP-mDia1 anchored on neutravidin coverslip, insertional barbed-end assembly; exposed to CP + unlabelled PA, then PA alone; detachment = BFC→BC+F, resumed growth = BFC→BF+C; F-buffer pH 7.8, 50 mM KCl, room temperature
[4] = target: formin FMNL2-bound actin filament barbed end (rabbit | not stated) (UniProt P68135); assay: microfluidics-assisted single-filament fluorescence microscopy (kinetics of elongation changes); set-up #1: CP-capped barbed ends (BC) exposed to formin without PA for T_(expo) (BC+F→BCF), then PA alone (constants 'from BCF'); k′+F from a fit, not measured directly; F-buffer pH 7.8, 50 mM KCl, room temperature
[5] = target: formin mDia1-bound actin filament barbed end (BF), set-up #1 (rabbit | human) (UniProt P68135); assay: as above

- Kd [1]: 0.016 nM
- koff [1]: 0.0002 s⁻¹
- kon [1]: 1.28e+07 M⁻¹ s⁻¹
- Kd [2]: 9 to 30 nM
- koff [2]: 0.0018 s⁻¹
- kon [2]: 210000 M⁻¹ s⁻¹
- Kd [3]: 25 nM
- koff [3]: 0.00202 s⁻¹
- kon [3]: 80000 M⁻¹ s⁻¹
- koff [4]: 0.0047 s⁻¹
- koff [5]: 0.0062 s⁻¹
Substance: capping protein (CP), αβ heterodimer (from UniProt P47753 1-286; P47757 1-277) (complex)
